In ChEMBL document CHEMBL3826928, “Incorporation of Phosphonate into Benzonaphthyridine Toll-like Receptor 7 Agonists for Adsorption to Aluminum Hydroxide” (J Med Chem, 2016):

Experiments:
[1] = molecular target: T1, Toll-like receptor 7 (Homo sapiens) (UniProt Q9NYK1); assay: Agonist activity at human TLR7 expressed in HEK293 cells incubated for 6 hrs by luciferase reporter gene assay relative to resiquimod; assay type: cell-based
T1 sequence (whole entry): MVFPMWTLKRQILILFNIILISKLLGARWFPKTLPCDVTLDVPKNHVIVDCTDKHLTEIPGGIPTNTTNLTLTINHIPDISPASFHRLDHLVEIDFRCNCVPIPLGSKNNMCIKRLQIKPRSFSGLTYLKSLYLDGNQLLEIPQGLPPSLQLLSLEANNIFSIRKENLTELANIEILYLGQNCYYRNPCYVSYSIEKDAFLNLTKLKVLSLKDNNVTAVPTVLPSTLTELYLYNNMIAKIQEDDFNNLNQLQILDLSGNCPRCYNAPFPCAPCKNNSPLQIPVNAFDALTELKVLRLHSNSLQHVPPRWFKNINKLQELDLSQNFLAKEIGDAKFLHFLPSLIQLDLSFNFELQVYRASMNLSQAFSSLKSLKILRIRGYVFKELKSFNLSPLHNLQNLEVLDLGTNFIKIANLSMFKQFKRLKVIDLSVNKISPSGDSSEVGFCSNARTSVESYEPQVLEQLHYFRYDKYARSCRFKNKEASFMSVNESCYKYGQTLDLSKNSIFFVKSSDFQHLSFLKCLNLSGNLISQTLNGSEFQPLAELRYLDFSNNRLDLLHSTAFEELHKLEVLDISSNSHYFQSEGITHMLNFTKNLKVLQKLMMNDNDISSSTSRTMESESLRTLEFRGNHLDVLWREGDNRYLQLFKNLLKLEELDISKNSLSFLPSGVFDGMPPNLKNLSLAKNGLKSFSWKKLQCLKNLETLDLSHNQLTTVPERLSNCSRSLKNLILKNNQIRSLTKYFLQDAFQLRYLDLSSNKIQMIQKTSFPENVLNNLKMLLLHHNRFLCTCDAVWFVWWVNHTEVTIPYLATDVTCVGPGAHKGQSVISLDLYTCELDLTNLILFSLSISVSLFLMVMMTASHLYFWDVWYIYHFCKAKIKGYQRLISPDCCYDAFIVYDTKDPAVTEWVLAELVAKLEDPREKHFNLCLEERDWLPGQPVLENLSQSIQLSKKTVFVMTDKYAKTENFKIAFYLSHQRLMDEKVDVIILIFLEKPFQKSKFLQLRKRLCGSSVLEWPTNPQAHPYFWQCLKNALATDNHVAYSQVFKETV
How it was run: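 HEK293 stably carrying NF-κB-firefly luciferase reporter plus human TLR7 (best resiquimod-responding clone), maintained under puromycin/blasticidin. 25 000 cells per well in DMEM with 3% FCS.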

[2] = molecular target: T1, Toll-like receptor 7 (Homo sapiens); assay: Agonist activity at TLR7 in human PBMC assessed as induction of IL-6 secretion in supernatant after 18 hrs relative to resiquimod; assay type: cell-based
How it was run: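 Isolated human PBMCs washed in PBS, resuspended in RPMI1640 with 10% heat-inactivated FBS, pyruvate, HEPES, at 1 × 10⁶ cells/mL. Compounds as in-situ sodium salts from 10 mM aqueous stocks, 3-fold 10-point dilutions from 30 μM.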

SMILES | %max [1] [%] | %max [2] [%]
Cc1ccc2c(c1)nc(N)c1ncc(CCc3ccc(OCCCC(F)(F)P(=O)(O)O)cc3C)cc12 | 97 | 31
Cc1cc(OCCCP(=O)(O)O)ccc1CCc1cnc2c(N)nc3cc(CCC(=O)O)ccc3c2c1 | 107 | 46
COc1ccc(CCc2cnc3c(N)nc4cc(/C=C(\F)P(=O)(O)O)ccc4c3c2)c(C)c1 | 100 | 40
Cc1ccc2c(c1)nc(N)c1ncc(CCc3ccc(OCCCP(=O)(O)O)cc3C)cc12 | 94 | 26
COc1ccc(CCc2cnc3c(N)nc4cc(C(=O)C(F)(F)P(=O)(O)O)ccc4c3c2)c(C)c1 | 87 | 56
COc1ccc(CCc2cnc3c(N)nc4cc(CCP(=O)(O)O)ccc4c3c2)c(C)c1 | 146 | 107
COc1ccc(CCc2cnc3c(N)nc4cc(/C=C/P(=O)(O)O)ccc4c3c2)c(C)c1 | 148 | 90
